Assays:
Type in all cases: cell-based
Endothelin-1 receptor [1] = target: T1, Endothelin-1 receptor (Homo sapiens, UniProt P25101); test: Tested for binding affinity for human Endothelin A receptor by measuring its ability to displace [125I]-ET-1 from chinese hamster ovary cells(CHO)
[2] = target: T2, Endothelin receptor type B (Homo sapiens, UniProt P24530); test: Tested for binding affinity for human Endothelin B receptor by measuring its ability to displace [125I]ET-3 from chinese hamster ovary cells(CHO)
T2 sequence (P24530 whole entry): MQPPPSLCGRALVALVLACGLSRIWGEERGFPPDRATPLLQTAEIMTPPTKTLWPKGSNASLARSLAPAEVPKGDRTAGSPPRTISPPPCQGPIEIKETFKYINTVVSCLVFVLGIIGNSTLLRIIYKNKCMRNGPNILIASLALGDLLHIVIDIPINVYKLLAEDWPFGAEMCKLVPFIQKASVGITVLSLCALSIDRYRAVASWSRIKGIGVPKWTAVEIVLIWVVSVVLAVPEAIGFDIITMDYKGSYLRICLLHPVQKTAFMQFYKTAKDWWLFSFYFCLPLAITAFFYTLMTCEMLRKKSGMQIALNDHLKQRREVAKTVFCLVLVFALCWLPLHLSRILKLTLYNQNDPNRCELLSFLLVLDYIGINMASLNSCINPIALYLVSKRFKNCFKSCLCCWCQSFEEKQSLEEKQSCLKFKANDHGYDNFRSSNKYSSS
In short: (§1)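 Membranes from CHO cells stably transfected with human ETA or ETB, made in Hepes/sucrose with protease inhibitors by differential centrifugation. 0.02 mg membrane incubated 3 h at 25 °C with 0.1 nM [125I]ET-1 (ETA) or [125I]ET-3 (ETB) and test compound, 11 concentrations 10^-10 to 10^-5. Filtration read-out; nonspecific binding with 1 µM ET-1; IC50 from at least two duplicate determinations.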

Protein sequences, listed by entry. Tags and fused reporters are not part of them.
UniProt P25101, whole entry: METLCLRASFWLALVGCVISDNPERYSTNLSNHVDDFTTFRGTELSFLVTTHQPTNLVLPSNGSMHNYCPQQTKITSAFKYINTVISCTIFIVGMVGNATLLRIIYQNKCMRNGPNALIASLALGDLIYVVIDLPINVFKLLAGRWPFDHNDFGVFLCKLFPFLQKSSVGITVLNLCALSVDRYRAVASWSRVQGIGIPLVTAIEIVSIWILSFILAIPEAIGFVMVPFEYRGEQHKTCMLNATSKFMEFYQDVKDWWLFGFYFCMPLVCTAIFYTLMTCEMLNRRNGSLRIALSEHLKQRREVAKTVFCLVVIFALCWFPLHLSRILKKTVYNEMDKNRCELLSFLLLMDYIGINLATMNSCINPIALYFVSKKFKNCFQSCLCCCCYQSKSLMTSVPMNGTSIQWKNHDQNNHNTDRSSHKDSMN

[3] = target: T2, Endothelin receptor type B; test: Tested for binding affinity for human Endothelin B receptor by measuring its ability to displace [125I]-ET-3 from chinese hamster ovary cells(CHO); in short: as §1
Endothelin-1 receptor [4] = target: T1, Endothelin-1 receptor; test: Tested for binding affinity for human Endothelin A receptor by measuring its ability to displace [125I]ET1 from chinese hamster ovary cells(CHO); in short: as §1

Ki (Endothelin-1 receptor [1]): 0.00046 µM | IC50 [2]: 15.4 µM | Ki [3]: 13 µM | IC50 (Endothelin-1 receptor [4]): 0.00049 µM
SMILES: CCCCN(CCCC)C(=O)CN1C[C@H](c2cc(OC)c3c(c2)OCO3)[C@@H](C(=O)O)[C@@H]1CC(C)(C)CCC [ABT-546]

— ChEMBL document CHEMBL1131628 (J Med Chem, 1998)
